# Measurements as given in PubChem BioAssay AID588819 (The Scripps Research Institute Molecular Screening Center, 2011).
# By UniProt entry, the sequences of proteins in these tests, tags left out.
# UniProt P11229, whole entry: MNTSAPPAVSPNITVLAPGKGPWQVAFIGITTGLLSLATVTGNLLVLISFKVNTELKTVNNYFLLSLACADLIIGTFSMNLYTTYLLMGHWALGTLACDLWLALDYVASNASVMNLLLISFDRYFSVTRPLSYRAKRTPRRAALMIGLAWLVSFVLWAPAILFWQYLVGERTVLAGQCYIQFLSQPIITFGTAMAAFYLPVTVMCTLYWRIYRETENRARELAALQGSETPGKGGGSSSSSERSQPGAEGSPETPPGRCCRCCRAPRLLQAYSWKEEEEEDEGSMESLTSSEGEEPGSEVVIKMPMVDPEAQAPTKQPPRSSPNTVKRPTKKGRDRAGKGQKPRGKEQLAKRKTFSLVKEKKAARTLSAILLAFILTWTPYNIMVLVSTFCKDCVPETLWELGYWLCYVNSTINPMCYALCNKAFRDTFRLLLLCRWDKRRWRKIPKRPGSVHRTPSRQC
# Only a part is listed here, and it is no random draw. The source made the active and inactive calls. Rule as the data show it: active = activation above about 19% (passing the limit was not always enough); inactive = the rest.
# Biological target: Muscarinic acetylcholine receptor M1 (Homo sapiens) (UniProt P11229)
# Assay: human M1 muscarinic receptor positive allosteric modulators, primary screen, CHO-K1 cells, Fluo-8 calcium fluorescence, 1536-well (AID 588819)
# Details: CHO-K1 hM1, Fluo-8 calcium fluorescence, ACh EC20; at 3 µM; hits give high values; 0% = ACh EC20, 100% = maximal ACh
row,Structure (SMILES),activation
1,COc1ccccc1OP(C)(=O)Nc1ccc(Br)cc1 (centres undefined),inactive: 5.33%
2,COc1ccc(OP(C)(=O)Nc2ccccn2)cc1 (centres undefined),inactive: 3.67%
3,CN(C)CCOC(=O)C(O)(c1ccccc1)C1CCCC1 (centres undefined),inactive: -33.2%
4,Cc1c(NP(C)(=O)Oc2ccc(C(C)C)cc2)c(=O)n(-c2ccccc2)n1C (centres undefined),inactive: 11.2%
5,O=[N+]([O-])c1cc([N+](=O)[O-])c(Nc2ccccn2)c([N+](=O)[O-])c1,inactive: 1.37%
6,COc1ccccc1OP(C)(=O)Nc1ccc(C)cc1C (centres undefined),inactive: 11%
7,CP(=O)(Nc1ccccn1)Oc1ccccc1 (centres undefined),inactive: 2.6%
8,CCc1ccc(OP(C)(=O)O)cc1,inactive: 7.85%
9,Cc1cc(C)cc(OP(C)(=O)Nc2cccc(C(F)(F)F)c2)c1 (centres undefined),inactive: 7.52%
10,O=C1C(O)=C([N+](=O)[O-])C(=O)C(O)=C1[N+](=O)[O-],inactive: 1.68%
11,COc1ccccc1OP(C)(=O)Nc1ccc(C)c(C)c1 (centres undefined),inactive: 8.27%
12,COc1ccc(OP(C)(=O)Nc2ccccc2Br)cc1 (centres undefined),inactive: 4.88%
13,CCCCCCCCCCCCCCCC1C[N+](C)(C)CCOP(C)(=O)O1 (centres undefined),inactive: -19.8%
14,CP(=O)(Nc1ccc(Cl)cc1Cl)Oc1ccccc1 (centres undefined),inactive: 11.9%
15,CP(=O)(OCCOc1ccccc1)OCCOc1ccccc1,inactive: 4.56%
16,CCOC(=O)c1ccc(NP(C)(=O)Oc2ccc(Cl)cc2)cc1 (centres undefined),inactive: 6.78%
17,CP(=O)(OC12CC3CC(CC(C3)C1)C2)OC12CC3CC(CC(C3)C1)C2,inactive: 0.47%
18,COc1ccc(OP(C)(=O)Nc2ccc(Br)cc2)cc1 (centres undefined),inactive: 8.77%
19,CCN(CC)CC(O)COC(=O)C(O)(c1ccccc1)C1CCCCC1 (centres undefined),inactive: -19.7%
20,O=C(OCCCN1CCCC1)C(O)(c1ccccc1)C1CCCCC1 (centres undefined),inactive: -26.9%
21,COc1ccccc1OP(C)(=O)Nc1c(C)n(C)n(-c2ccccc2)c1=O (centres undefined),inactive: 3.59%
22,CCc1ccc(OP(C)(=O)Nc2cccnc2)cc1 (centres undefined),inactive: 7.23%
23,CP(=O)(Oc1ccccc1)N1CCOC1=O (centres undefined),inactive: 1.57%
24,COc1ccccc1OP(C)(=O)Nc1ccccc1Br (centres undefined),inactive: 3.27%
25,CC(C)(C)c1ccc(OP(C)(=O)O)cc1,inactive: -4.79%
26,CP(=O)(Nc1ccc(Cl)cc1)Oc1ccc(F)cc1 (centres undefined),inactive: 4.32%
27,CN(C)C(=O)c1c([N+](=O)[O-])cc([N+](=O)[O-])cc1[N+](=O)[O-],inactive: 3.73%
28,CP(=O)(Nc1ccc(SC(F)(F)F)cc1)Oc1ccc(F)cc1 (centres undefined),inactive: -3.84%
29,CCOP(C)(=S)SCC(=O)NC(C)(CC)C(=O)O (centres undefined),inactive: 8.08%
